Measurements published in patent US10065948B2, “Histone deacetylase inhibitors and compositions and methods of use thereof” (CHDI Foundation, Inc., priority 2014, dated 2018).

Chains of the proteins cited; added tags and fusions are not shown. Residues count along the entry.
UniProt P56524, 648-1032: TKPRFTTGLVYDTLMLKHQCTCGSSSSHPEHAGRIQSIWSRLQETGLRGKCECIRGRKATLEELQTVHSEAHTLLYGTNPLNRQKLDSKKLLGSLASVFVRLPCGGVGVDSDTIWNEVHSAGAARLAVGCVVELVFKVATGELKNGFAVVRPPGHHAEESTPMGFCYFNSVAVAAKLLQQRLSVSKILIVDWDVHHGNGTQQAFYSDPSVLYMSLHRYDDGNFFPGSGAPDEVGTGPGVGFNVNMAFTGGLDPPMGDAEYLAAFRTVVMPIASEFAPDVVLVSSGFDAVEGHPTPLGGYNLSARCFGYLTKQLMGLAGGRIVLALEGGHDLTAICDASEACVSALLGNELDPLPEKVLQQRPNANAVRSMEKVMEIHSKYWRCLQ

target: Histone Deacetylase 4 (HDAC4) catalytic domain (Homo sapiens (Human), UniProt P56524); experiment: Biochemical HDAC inhibition assay, fluorogenic substrate Boc-Lys(Tfa)-AMC
Description: The potency of compounds is quantified by measuring the Histone Deacetylase 4 (HDAC4) catalytic domain enzymatic activity using the fluorogenic substrate, Boc-Lys(Tfa)-AMC. The substrate is deacetylated to Boc-Lys-AMC by HDAC4. Cleavage by trypsin results in the release of the fluorophore AMC from the deacetylated substrate. The fluorescence of the sample is directly related to the histone deacetylase activity in the sample.
Stocks of 60 μL aliquots of the 10 mM compound in DMSO are prepared and stored at −20° C. From one stock aliquot of each compound to be tested and the reference compound, a 16-point serial dilution is prepared according to Table 1 using a 125 μL 16-channel Matrix multi-channel pipette (Matrix Technologies Ltd).
2 μL (200×) of each diluted solution and each control (full activity: 100% DMSO alone or full inhibition 1 mM) is stamped into V-bottomed polypropylene 384-well compound plates using either the Bravo (384-well head from Agilent) or 12.5 μL 16-channel Matrix multi-channel pipette (Matrix Technologies Ltd). Each well with the 200× compound solution is diluted 1:20 by the addition of 38 μL assay buffer+DMSO (10.5% DMSO, 45 mM Tris-HCl, 123 mM NaCl, 2.4 mM KCl, and 0.9 mM MgCl2 at pH 8.0 and equilibrated to room temperature).
The HDAC4 catalytic domain enzyme is human catalytic domain HDAC4 protein (amino acids 648-1032) with a C-terminal 6× histidine tag, produced by BioFocus. A working solution of enzyme is prepared from a 500 μg/mL stock aliquot of HDAC4 catalytic domain (thawed on ice) diluted to 0.2 μg/mL with assay buffer (50 mM Tris-HCl, 137 mM NaCl, 2.7 mM KCl, and 1 mM MgCl2 at pH 8 and equilibrated to room temperature) just prior to the addition of the enzyme to the assay.
5× (50 μM) substrate is prepared just prior to the addition to the assay. A 1 mM substrate stock is made by diluting a 100 mM Boc-Lys(Tfa)-AMC in DMSO solution 1:100 by adding it drop-wise to assay buffer (equilibrated to room temperature) while vortexing at slow speed to prevent precipitation. The 5× substrate is prepared by diluting the 1 mM substrate solution 1:20 by adding it drop-wise to assay buffer (equilibrated to room temperature) while vortexing at slow speed to prevent precipitation.
3× (30 μM) Developer/Stop Solution is prepared just prior to addition to the plate by diluting a stock solution of 10 mM reference compound 1:333 in 25 mg/mL trypsin (PAA Laboratories Ltd.) equilibrated to room temperature.
5 μL of each solution of 1:20 diluted compound from above is transferred to a clear bottomed, black, 384-well assay plate using the Bravo or the Janus (384-well MDT head from Perkin Elmer). Using a 16-channel Matrix multi-channel pipette, 35 μL of the working solution of HDAC4 catalytic domain enzyme (0.2 μg/mL in assay buffer) is transferred to the assay plate. […] The assay plate is then shaken for two minutes on an orbital shaker at 900 rpm (rotations per minute). Next the plate is incubated for 15 minutes at 37° C. The reaction is stopped by adding 25 μL of 3× (30 μM) developer/stop solution to the assay plates using either the Bravo, Janus or a 16-channel Matrix multi-channel pipette. Assay plates are then shaken for 5 minutes on an orbital shaker at 1200 rpm. Next, the assay plates are incubated at 37° C. for 1 hour in a tissue culture incubator. Finally, the fluorescence is measured (Excitation: 355 nm, Emission: 460 nm) using PerkinElmer EnVision in top read mode.

| Compound | IC50 |
| --- | --- |
| Cc1ccccc1-n1ncc2c1C[C@](C(=O)NO)(c1cccc(F)c1C)C2 [Example 2, (S)-5-(3-Fluoro-2-methylphenyl)-N-hydroxy-1-(o-tolyl)-1,4,5,6-tetrahydrocyclopenta[c]pyrazole-5-carboxamide] | 23 nM |
| Cc1c(F)cccc1[C@]1(C(=O)NO)Cc2cnn(-c3ccc(Cl)cc3)c2C1 [Example 8, (S)-1-(4-Chlorophenyl)-5-(3-fluoro-2-methylphenyl)-N-hydroxy-1,4,5,6-tetrahydrocyclopenta[c]pyrazole-5-carboxamide] | 112 nM |
| Cc1ccccc1-n1ncc2c1CCC(C(=O)NO)(c1cccc(F)c1C)C2 (single isomer, unassigned) [Example 37, E1-(abs)-5-(3-Fluoro-2-methylphenyl)-N-hydroxy-1-(o-tolyl)-4,5,6,7-tetrahydro-1H-indazole-5-carboxamide] | 1100 nM |
| Cc1cc(F)ccc1-n1ncc2c1C[C@](C(=O)NO)(c1cccc(F)c1C)C2 [Example 22, (S)-5-(3-Fluoro-2-methylphenyl)-1-(4-fluoro-2-methylphenyl)-N-hydroxy-1,4,5,6-tetrahydrocyclopenta[c]pyrazole-5-carboxamide] | 44 nM |
| Cc1c(F)cccc1[C@]1(C(=O)NO)Cc2cnn(-c3c(F)cccc3F)c2C1 [Example 11, (S)-1-(2,6-Difluorophenyl)-5-(3-fluoro-2-methylphenyl)-N-hydroxy-1,4,5,6-tetrahydrocyclopenta[c]pyrazole-5-carboxamide] | 12 nM |
| Cc1c(F)cccc1C1(C(=O)NO)CCc2nn(-c3ccccc3F)cc2C1 (single isomer, unassigned) [Example 34, E2-(abs)-5-(3-fluoro-2-methylphenyl)-2-(2-fluorophenyl)-N-hydroxy-4,5,6,7-tetrahydro-2H-indazole-5-carboxamide] | 19800 nM |
| Cc1cc(F)ccc1-n1cc2c(n1)C[C@](C(=O)NO)(c1cccc(F)c1C)C2 [Example 23, (S)-5-(3-fluoro-2-methylphenyl)-2-(4-fluoro-2-methylphenyl)-N-hydroxy-2,4,5,6-tetrahydrocyclopenta[c]pyrazole-5-carboxamide] | 197 nM |
| Cc1c(F)cccc1C1(C(=O)NO)CCc2nn(-c3ccccc3F)cc2C1 (single isomer, unassigned) [Example 33, E1-(abs)-5-(3-Fluoro-2-methylphenyl)-2-(2-fluorophenyl)-N-hydroxy-4,5,6,7-tetrahydro-2H-indazole-5-carboxamide] | 710 nM |
| Cc1ccccc1-n1ncc2c1CCC(C(=O)NO)(c1cccc(F)c1C)C2 (single isomer, unassigned) [Example 38, E2-(abs)-5-(3-fluoro-2-methylphenyl)-N-hydroxy-1-(o-tolyl)-4,5,6,7-tetrahydro-1H-indazole-5-carboxamide] | 7900 nM |
| Cc1c(F)cccc1[C@@]1(C(=O)NO)Cc2cnc(C3CC3)nc2C1 [Example 50, (R)-2-Cyclopropyl-6-(3-fluoro-2-methylphenyl)-N-hydroxy-6,7-dihydro-5H-cyclopenta[d]pyrimidine-6-carboxamide] | 220 nM |

The next lines start with the values.

| IC50 | Compound |
| --- | --- |
| 94 nM | Cc1c(F)cccc1[C@]1(C(=O)NO)CCc2nc(C3CC3)sc21 [Example 72, (S)-2-Cyclopropyl-6-(3-fluoro-2-methylphenyl)-N-hydroxy-5,6-dihydro-4H-cyclopenta[d]thiazole-6-carboxamide] |
| 15300 nM | O=C(NO)C1(c2ccccc2)Cc2ccccc2C1 [Example 89, N-Hydroxy-2-phenyl-2,3-dihydro-1H-indene-2-carboxamide] |
| 210 nM | Cc1c(F)cccc1C1(C(=O)NO)Cc2nc(-c3cccc(F)c3)sc2C1 (single isomer, unassigned) [Example 64, E1-(abs)-5-(3-Fluoro-2-methylphenyl)-2-(3-fluorophenyl)-N-hydroxy-5,6-dihydro-4H-cyclopenta[d]thiazole-5-carboxamide] |
| 160 nM | Cc1c(F)cccc1[C@]1(C(=O)NO)Cc2cnc(C3CC3)nc2C1 [Example 52, (S)-2-Cyclopropyl-6-(3-fluoro-2-methylphenyl)-N-hydroxy-6,7-dihydro-5H-cyclopenta[d]pyrimidine-6-carboxamide] |
| 220 nM | Cc1c(F)cccc1[C@]1(C(=O)NO)Cc2cnc(-c3cccnc3)nc2C1 [Example 60, (S)-6-(3-Fluoro-2-methylphenyl)-N-hydroxy-2-(pyridin-3-yl)-6,7-dihydro-5H-cyclopenta[d]pyrimidine-6-carboxamide] |
| > 50000 nM | O=C(NO)[C@@]1(c2ccccc2)CCc2ccccc21 [Example 88, E2-(abs)-N-hydroxy-1-phenyl-2,3-dihydro-1H-indene-1-carboxamide] |
| 290 nM | Cc1c(F)cccc1[C@]1(C(=O)NO)Cc2cnc(-c3ccc(F)cc3)nc2C1 [Example 55, (S)-6-(3-Fluoro-2-methylphenyl)-2-(4-fluorophenyl)-N-hydroxy-6,7-dihydro-5H-cyclopenta[d]pyrimidine-6-carboxamide] |
| 79 nM | Cc1c(F)cccc1[C@]1(C(=O)NO)Cc2snc(-c3ccccc3)c2C1 [Example 80, E1-(abs)-5-(3-Fluoro-2-methylphenyl)-N-hydroxy-3-phenyl-5,6-dihydro-4H-cyclopenta[d]isothiazole-5-carboxamide] |
| 9700 nM | Cc1c(F)cccc1[C@@]1(C(=O)NO)Cc2snc(-c3ccccc3)c2C1 [Example 81, E2-(abs)-5-(3-Fluoro-2-methylphenyl)-N-hydroxy-3-phenyl-5,6-dihydro-4H-cyclopenta[d]isothiazole-5-carboxamide] |
| 72 nM | Cc1c(F)cccc1[C@]1(C(=O)NO)CCc2c1cnn2-c1ccccc1 [Example 54, (R)-4-(3-Fluoro-2-methylphenyl)-N-hydroxy-1-phenyl-1,4,5,6-tetrahydrocyclopenta[c]pyrazole-4-carboxamide] |
| 193 nM | Cc1c(F)cccc1[C@]1(C(=O)NO)Cc2nc(-c3ccc(F)cc3)sc2C1 [Example 67, (S)-5-(3-fluoro-2-methylphenyl)-2-(4-fluorophenyl)-N-hydroxy-5,6-dihydro-4H-cyclopenta[d]thiazole-5-carboxamide] |
| 36 nM | Cc1c(F)cccc1[C@]1(C(=O)NO)Cc2cnn(-c3ccc(F)cc3Cl)c2C1 [Example 90, (S)-1-(2-Chloro-4-fluorophenyl)-5-(3-fluoro-2-methylphenyl)-N-hydroxy-1,4,5,6-tetrahydrocyclopenta[c]pyrazole-5-carboxamide] |
| 81 nM | Cc1c(F)cccc1[C@@]1(C(=O)NO)Cc2nc(-c3ccc(F)cc3)sc2C1 [Example 66, (R)-5-(3-Fluoro-2-methylphenyl)-2-(4-fluorophenyl)-N-hydroxy-5,6-dihydro-4H-cyclopenta[d]thiazole-5-carboxamide] |
